In patent publication US20030032203A1, “Small molecule microarrays” (published 2003):

System: A549cells
Assay: PDLAG sandwich test compound array, effects on cell viability and morphology
Settings: three concentrations; 32 hours at 37C; blinded observers; ring size increasing with concentration

O=[As]c1ccccc1 (stereo not shown)
effect on cell morphology and viability: caused a ring of clearing in the cells
